The list shows a part of the results, in another mix than the full data. Active and inactive are the calls of the source. Calls follow the shape of the dose curve; as a rule, active = well fitted activation curve with a large enough effect; inconclusive = small, poorly fitted or top-dose-only effect; inactive = flat fitted curve, though single readings scatter.
assay: qHTS Assay for Allosteric/Competitive Inhibitors of Caspase-1: Spectroscopic Profiling in AFC Spectral Region; settings: compound fluorescence, AFC spectral region (405/520 nm); at 57.5 µM (top of the series); also: 0% is about no effect

| SMILES | fluorescence increase |
| --- | --- |
| CN(CCCl)CCCl | inactive: 0.931% |
| O=[N+]([O-])C(Cl)(Cl)Cl | inactive: 3.8% |

From PubChem BioAssay AID923 (National Center for Advancing Translational Sciences (NCATS), 2007)
